Reference: patent US20230072955A1 (EXUMA BIOTECH, published 2023)

Molecular target: T1, recombinant human HER2 antigen (human, UniProt P04626, in part)
T1 construct: also called human HER2 protein
Experiment: pH range ELISA, IgG at 100 ng/mL on plate-coated recombinant human HER2; pH of 50% binding activity (pH 6.0 = 100%)

Binder	pH Inflection Point Calculation [pH]
VH-G056K/VL-A032D (antibody, V domains shown, also called G056K/A032D) VH: [about 120 residues with changes skipped] VL: DIQMTQSPSSLSASVGDRVTITCRASQDVNTDVAWYQQKPGKAPKLLIYSASFLYSGVPSRFSGSRSGTDFTLTISSLQPEDFATYYCQQHYTTPPTFGQGTKVEIK	6.22
VH-Y052K/VL-A032D (antibody, V domains shown, also called Y052K/A032D) VH: [about 120 residues with changes skipped] VL: DIQMTQSPSSLSASVGDRVTITCRASQDVNTDVAWYQQKPGKAPKLLIYSASFLYSGVPSRFSGSRSGTDFTLTISSLQPEDFATYYCQQHYTTPPTFGQGTKVEIK	6.22
VH-N055A/VL-A032D (antibody, V domains shown) VH: [about 120 residues with changes skipped] VL: DIQMTQSPSSLSASVGDRVTITCRASQDVNTDVAWYQQKPGKAPKLLIYSASFLYSGVPSRFSGSRSGTDFTLTISSLQPEDFATYYCQQHYTTPPTFGQGTKVEIK	6.3
VH-S119E/VL-A032D (antibody, V domains shown) VH: [about 120 residues with changes skipped] VL: DIQMTQSPSSLSASVGDRVTITCRASQDVNTDVAWYQQKPGKAPKLLIYSASFLYSGVPSRFSGSRSGTDFTLTISSLQPEDFATYYCQQHYTTPPTFGQGTKVEIK	6.22

Other lines, results leading:

pH Inflection Point Calculation [pH]	Binder
6.13	VH-Y052D/VL-A032D (antibody, V domains shown) VH: [about 120 residues with changes skipped] VL: DIQMTQSPSSLSASVGDRVTITCRASQDVNTDVAWYQQKPGKAPKLLIYSASFLYSGVPSRFSGSRSGTDFTLTISSLQPEDFATYYCQQHYTTPPTFGQGTKVEIK
6.05	VH-N028W/VL-A032D (antibody, V domains shown) VH: [about 120 residues with changes skipped] VL: DIQMTQSPSSLSASVGDRVTITCRASQDVNTDVAWYQQKPGKAPKLLIYSASFLYSGVPSRFSGSRSGTDFTLTISSLQPEDFATYYCQQHYTTPPTFGQGTKVEIK
6.46	VH-T058D/VL-A032D (antibody, V domains shown, also called T058D/A032D) VH: [about 120 residues with changes skipped] VL: DIQMTQSPSSLSASVGDRVTITCRASQDVNTDVAWYQQKPGKAPKLLIYSASFLYSGVPSRFSGSRSGTDFTLTISSLQPEDFATYYCQQHYTTPPTFGQGTKVEIK
